Patent US10751346B2, “Pyrrolobenzodiazepine—anti-PSMA antibody conjugates” (priority 2012, dated 2020)

System: LNCaP cells
Experiment: In vitro cytotoxicity of ADCs, Alamar Blue assay, LNCaP cells
Type: cell-based, human
Settings: LNCaP cells (PSMA +ve), 4 days incubation, average of three replicate experiments
Method: LNCaP and PC3 cells were a generous gift from Professor John Hartley (UCL) Cell culture medium was RPMI 1640 supplemented with L-Glutamine and 10% FBS. Cells were grown at 37° C., 5% CO2, in a humidified incubator.
The concentration and viability of cultures of suspended cells (at up to 1×10^6/ml) were determined by mixing 1:1 with Trypan blue and counting clear (live)/blue (dead) cells with a haemocytometer. The cell suspension was diluted to the required seeding density (generally 10^5/ml) and dispensed into 96-well flat bottomed plates. For Alamar blue assay, 100 μl/well was dispensed in black-well plates. For MTS assay, 50 μl/well was dispensed in clear-well plates. […] After incubation for 4 days, cell viability was measured by either Alamar blue or MTS assay.
AlamarBlue® (Invitrogen, catalogue number DAL1025) was dispensed (20 μl per well) into each well and incubated for 4 hours at 37° C. in the CO2-gassed incubator. Well fluorescence was measured at excitation 570 nm, emission 585 nm. Cell survival (%) was calculated from the ratio of mean fluorescence in the 4 ADC-treated wells compared to the mean fluorescence in the 4 control wells (100%).
MTS (Promega, catalogue number G5421) was dispensed (20 μl per well) into each well and incubated for 4 hours at 37° C. in the CO2-gassed incubator. Absorbance was measured at 490 nm. […]

Substance	EC50 [ng/mL]
deJ591-D	4.897
deJ591-E	6.856
